Assay results reported in ChEMBL document CHEMBL1144844, “Synthesis and characterization of 5,6,7,8-tetrahydroquinoline C5a receptor antagonists” (Bioorg Med Chem Lett, 2008).

Target: T1, C5a anaphylatoxin chemotactic receptor 1 (Homo sapiens, UniProt P21730)
T1 sequence (P21730 whole entry): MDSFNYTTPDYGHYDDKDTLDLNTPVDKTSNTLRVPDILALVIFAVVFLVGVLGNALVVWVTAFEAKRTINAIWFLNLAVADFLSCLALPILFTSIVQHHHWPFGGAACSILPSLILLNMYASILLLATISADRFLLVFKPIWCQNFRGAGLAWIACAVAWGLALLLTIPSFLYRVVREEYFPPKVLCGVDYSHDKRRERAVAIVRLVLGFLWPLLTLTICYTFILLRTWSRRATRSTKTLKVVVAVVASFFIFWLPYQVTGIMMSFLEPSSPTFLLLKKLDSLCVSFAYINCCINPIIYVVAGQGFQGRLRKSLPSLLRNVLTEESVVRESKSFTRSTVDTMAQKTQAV
Assay: Displacement of [125I]C5a from human C5a receptor in U937 cells
Type: cell-based, U-937
Summary of the method: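 Competition binding on U937 cells that had been differentiated for 48–72 h with 1 mM dibutyryl cAMP. Compound in 1% DMSO was pre-incubated for 30 min at 25 °C. Then 0.05 nM Bolton–Hunter [¹²⁵I]-C5a was added for 60 min at 4 °C. Non-specific binding was defined with 100 nM C5a. Cells were filtered on PEI-soaked GF/B and counted by scintillation.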

Compound: CCc1cccc(CC)c1-c1cc(OC)c2c(n1)CCCC2N(CC)c1cccc2ccccc12 (stereo in doubt; 27)
- Ki: 8.9 nM
